Measured values taken from patent publication US20240316164A1, “ENHANCED EXPRESSION OF AN AROMATIC AMINO ACID DECARBOXYLASE (AADC) IN THE SUBSTANTIA NIGRA FOR THE TREATMENT OF PARKINSON'S DISEASE” (Northwestern University, priority 2021, published 2024).

Tested on: striatal dopamine release
Assay: Evoked striatal dopamine release by fast-scan cyclic voltammetry in ex vivo brain slices
Parameters: species or system mouse
Conditions: levodopa pretreatment, stimulation 350 μA, 2 ms
Procedure: FIG. 4. cNdufs2^−/− mice manifest a progressive, levodopa-responsive Parkinsonism. a, Schematic diagram of the experimental protocol for Y maze test. The scoring of 2 and 3 was counted as incorrect. b, Box plots indicate the percentage of correct choices for wildtype (P30 N=8; P60 N=6) cNdufs2^−/− (P30 N=8; P60 N=6), and cNdufs2^−/− plus 6 mg/kg levodopa (P30 N=8; P60 N=6). c, Striatal dopamine release measured with fast-scan cyclic voltammetry at P30 and P60. Local electrical stimulation (350 μA, 2 ms) was used to evoke release. […] By P30, cNdufs2^−/− mice took longer (N=10-13 per group). e, Open-field traces in wildtype and cNdufs2^−/− mice at P30 and P100. f, Number of pauses during open field test in wildtype and cNdufs2^−/− mice. […] N=12-27per group. h-m, Gait analysis procedure and measurement schematics. h, Pictures of wildtype and cNdufs2^−/− mice footprints with representations of measurements of RF (Right Fore). RH (Right Hind). […]
In addition to triggering metabolic reprogramming, loss of Ndufs2 induced significant changes in the expression of genes related to axonal growth and transport (e.g., Tubb3, Uchl1, WntSa, Sema3g Nofl, Nefm, Prkca, Sema4d), synaptic transmission (e.g., Syt1/3/17, Syn2, SCNA), DA synthesis/storage (e.g., TH, VAMP2) and presynaptic regulation (e.g., Drd2, Chra4,6) (FIG. 2a, Tables 4-6). […] To determine the functional significance of these changes, DA release evoked by electrical stimulation was measured in ex vivo brain slices using fast scan cyclic voltammetry or the genetically-encoded, optical DA sensor dLight (Ref. 19; incorporated by reference in its entirety). By P30, DA release by dopaminergic axons in the dorsolateral striatum-measured with either approach—was close to zero. In contrast, somatodendritic DA release in the SN (measured with dLight) was normal (FIG. 2f-i, FIG. 14-15). […]

Q: Which “evoked striatal DA release” value (ex vivo slices from P30 cNdufs2−/− mice) does the source give for N[C@@H](Cc1ccc(O)c(O)c1)C(=O)O [levodopa] here?
A: The value was “increased DA release to measurable levels”.

Q: What about the “evoked striatal DA release” value (ex vivo slices from P60 cNdufs2−/− mice) of the same molecule?
A: The value was “but not from P60 mice”.

Q: And the “evoked striatal DA release” value (ex vivo slices from P60 cNdufs2−/− mice, listed as Levodopa)?
A: Its value is “but not P60 mice”.
